Test results from patent US10183938B2, “Geminal substituted quinuclidine amide compounds as agonists of α-7 nicotonic acetylcholine receptors” (AXOVANT SCIENCES GMBH, priority 2014, dated 2019).

Sequences of proteins named here, by UniProt entry; tags and fusion partners are left off. Residues count along the entry.
UniProt P36544, 23-502 limits assumed: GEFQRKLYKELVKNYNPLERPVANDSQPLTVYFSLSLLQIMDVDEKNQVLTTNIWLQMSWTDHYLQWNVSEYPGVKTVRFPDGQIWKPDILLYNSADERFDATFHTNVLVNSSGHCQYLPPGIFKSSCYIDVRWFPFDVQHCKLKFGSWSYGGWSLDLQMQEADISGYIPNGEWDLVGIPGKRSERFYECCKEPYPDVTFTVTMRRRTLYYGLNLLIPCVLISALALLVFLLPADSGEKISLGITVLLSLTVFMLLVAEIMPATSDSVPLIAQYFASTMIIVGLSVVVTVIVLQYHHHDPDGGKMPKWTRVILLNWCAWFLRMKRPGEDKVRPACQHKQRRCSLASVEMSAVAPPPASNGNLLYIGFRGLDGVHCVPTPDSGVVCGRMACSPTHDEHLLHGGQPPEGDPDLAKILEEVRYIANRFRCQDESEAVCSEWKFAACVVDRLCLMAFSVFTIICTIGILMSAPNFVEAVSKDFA

target: human α7 nAChRs transiently expressed in Xenopus laevis oocytes (Homo sapiens (Human), UniProt P36544); assay: Oocyte electrophysiology screen (TEVC); format: cell-based; conditions: 0.01 mM test compound, peak current relative to 0.2 mM ACh; hydrochloride
Method: Oocyte Electrophysiology Screen (% ACh @ 10 μM Oocyte)
The Oocyte Electrophysiology Screen studies were performed under contract by HiQScreen Geneva, Switzerland. All experiments were carried out at human α7 nAChRs transiently expressed in Xenopus laevis oocytes using the method of cDNA expression. Currents evoked by acetylcholine or other agonist ligands were recorded using the standard two-electrode voltage-clamp configuration (TEVC). X. laevis oocytes were prepared and injected using standard procedures. Briefly, ovaries were harvested from X. laevis females that were deeply anesthetized and pithed following the animal rights rule from the Geneva canton. A small piece of ovary was isolated for immediate preparation while the remaining part was placed at 4° C. in a sterile Barth solution containing in mM: NaCl 88, KCl 1, NaHCO3 2.4, HEPES 10, MgSO4.7H2O 0.82, Ca(NO3)2.4H2O 0.33, CaCl2.6H2O 0.41, at pH 7.4, and supplemented with 20 μg/mL of kanamycin, 100 unit/mL penicillin and 100 μg/mL streptomycin. […] Cells were held at −80 mV. Data were filtered at 10 Hz, captured at 100 Hz and analyzed using proprietary data acquisition and analysis software running under Matlab (Mathworks Inc.).
Experimental Protocol and Analysis
After establishing a baseline transmembrane current, acetylcholine (ACh) was applied for 5 seconds at a concentration of 0.2 mM to establish a control ACh-evoked current response. Following a wash period of 90 s in OR2 medium (free of ACh), cells were then exposed for 30 s to the test compound applied at 0.01 mM. The same reference ACh test pulse was immediately given at the end of the compound exposure and again after 90 s of recovery in OR2 Medium (free of ACh or test compound). All data were determined in triplicate. The response evoked by the test compound was expressed as a percentage of that evoked by ACh: Response (% ACh)=100×(Itest/IACh) where Itest is the peak inward current measured during exposure to 0.01 mM of test compound and IACh is the peak inward current measured in the presence of ACh.

SMILES | % ACh @ 10 μM Oocyte
CC1(C)C(NC(=O)c2ccc(Cl)cc2)C2CCN1CC2 (single isomer, unassigned; enantiomer1) [2a, 4-chloro-N-(2,2-dimethylquinuclidin-3-yl)benzamide-enantiomer1 hydrochloride] | 246 % ACh
O=C(NC1C2CCN(CC2)C12CC2)c1ccc(Cl)cc1 (single isomer, unassigned; enantiomer1) [55a, 4-chloro-N-(1′-azaspiro[cyclopropane-1,2′-bicyclo[2.2.2]octan]-3′-yl)benzamide-enantiomer1 hydrochloride] | 3 % ACh
CC1(C)C(NC(=O)c2ccc(Cl)cc2)C2CCN1CC2 (single isomer, unassigned; enantiomer2) [2b, 4-chloro-N-(2,2-dimethylquinuclidin-3-yl)benzamide-enantiomer2 hydrochloride] | 2 % ACh
O=C(NC1C2CCN(CC2)C12CC2)c1ccc(Cl)cc1 (single isomer, unassigned; enantiomer2) [55b, 4-chloro-N-(1′-azaspiro[cyclopropane-1,2′-bicyclo[2.2.2]octan]-3′-yl)benzamide-enantiomer2 hydrochloride] | 176 % ACh

Where a name gives a salt, the structure may show the parent alone.
